Results published in ChEMBL document CHEMBL2010688, “Tri- and tetrasubstituted pyrazole derivates: regioisomerism switches activity from p38MAP kinase to important cancer kinases” (J Med Chem, 2012).

Chains of the proteins cited; added tags and fusions are not shown. Residues count along the entry.
UniProt P00533, whole entry: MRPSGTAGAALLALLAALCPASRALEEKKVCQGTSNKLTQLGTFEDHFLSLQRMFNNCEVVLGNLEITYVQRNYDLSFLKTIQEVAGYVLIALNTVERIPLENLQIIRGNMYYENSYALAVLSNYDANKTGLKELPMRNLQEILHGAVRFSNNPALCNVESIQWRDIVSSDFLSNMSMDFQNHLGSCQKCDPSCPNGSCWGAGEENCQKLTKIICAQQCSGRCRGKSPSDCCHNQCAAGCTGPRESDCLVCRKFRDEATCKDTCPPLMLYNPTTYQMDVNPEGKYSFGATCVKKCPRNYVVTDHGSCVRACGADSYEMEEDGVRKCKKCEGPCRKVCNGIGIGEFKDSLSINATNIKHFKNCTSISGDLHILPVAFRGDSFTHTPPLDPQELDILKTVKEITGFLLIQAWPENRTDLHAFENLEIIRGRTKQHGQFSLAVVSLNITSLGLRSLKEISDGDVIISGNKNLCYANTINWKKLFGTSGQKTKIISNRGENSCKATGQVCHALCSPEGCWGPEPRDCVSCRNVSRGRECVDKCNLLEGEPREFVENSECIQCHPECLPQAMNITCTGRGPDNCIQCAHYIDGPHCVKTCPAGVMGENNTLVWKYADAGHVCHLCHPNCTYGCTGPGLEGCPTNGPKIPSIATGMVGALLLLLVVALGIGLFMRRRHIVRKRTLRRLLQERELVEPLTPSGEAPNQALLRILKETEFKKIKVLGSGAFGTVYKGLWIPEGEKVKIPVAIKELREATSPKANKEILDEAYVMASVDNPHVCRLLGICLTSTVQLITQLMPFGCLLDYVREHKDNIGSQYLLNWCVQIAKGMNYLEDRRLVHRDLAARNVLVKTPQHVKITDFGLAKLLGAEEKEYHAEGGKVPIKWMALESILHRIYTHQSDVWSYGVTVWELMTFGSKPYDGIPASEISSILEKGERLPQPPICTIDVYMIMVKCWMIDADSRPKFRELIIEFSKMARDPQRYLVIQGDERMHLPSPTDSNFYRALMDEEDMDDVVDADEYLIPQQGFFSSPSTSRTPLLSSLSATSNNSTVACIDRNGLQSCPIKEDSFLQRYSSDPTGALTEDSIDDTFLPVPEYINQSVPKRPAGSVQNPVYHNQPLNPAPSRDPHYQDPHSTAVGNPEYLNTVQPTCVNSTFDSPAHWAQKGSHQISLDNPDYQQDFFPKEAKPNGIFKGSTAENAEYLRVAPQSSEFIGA
UniProt P00533, 25-1210 L858R limits assumed: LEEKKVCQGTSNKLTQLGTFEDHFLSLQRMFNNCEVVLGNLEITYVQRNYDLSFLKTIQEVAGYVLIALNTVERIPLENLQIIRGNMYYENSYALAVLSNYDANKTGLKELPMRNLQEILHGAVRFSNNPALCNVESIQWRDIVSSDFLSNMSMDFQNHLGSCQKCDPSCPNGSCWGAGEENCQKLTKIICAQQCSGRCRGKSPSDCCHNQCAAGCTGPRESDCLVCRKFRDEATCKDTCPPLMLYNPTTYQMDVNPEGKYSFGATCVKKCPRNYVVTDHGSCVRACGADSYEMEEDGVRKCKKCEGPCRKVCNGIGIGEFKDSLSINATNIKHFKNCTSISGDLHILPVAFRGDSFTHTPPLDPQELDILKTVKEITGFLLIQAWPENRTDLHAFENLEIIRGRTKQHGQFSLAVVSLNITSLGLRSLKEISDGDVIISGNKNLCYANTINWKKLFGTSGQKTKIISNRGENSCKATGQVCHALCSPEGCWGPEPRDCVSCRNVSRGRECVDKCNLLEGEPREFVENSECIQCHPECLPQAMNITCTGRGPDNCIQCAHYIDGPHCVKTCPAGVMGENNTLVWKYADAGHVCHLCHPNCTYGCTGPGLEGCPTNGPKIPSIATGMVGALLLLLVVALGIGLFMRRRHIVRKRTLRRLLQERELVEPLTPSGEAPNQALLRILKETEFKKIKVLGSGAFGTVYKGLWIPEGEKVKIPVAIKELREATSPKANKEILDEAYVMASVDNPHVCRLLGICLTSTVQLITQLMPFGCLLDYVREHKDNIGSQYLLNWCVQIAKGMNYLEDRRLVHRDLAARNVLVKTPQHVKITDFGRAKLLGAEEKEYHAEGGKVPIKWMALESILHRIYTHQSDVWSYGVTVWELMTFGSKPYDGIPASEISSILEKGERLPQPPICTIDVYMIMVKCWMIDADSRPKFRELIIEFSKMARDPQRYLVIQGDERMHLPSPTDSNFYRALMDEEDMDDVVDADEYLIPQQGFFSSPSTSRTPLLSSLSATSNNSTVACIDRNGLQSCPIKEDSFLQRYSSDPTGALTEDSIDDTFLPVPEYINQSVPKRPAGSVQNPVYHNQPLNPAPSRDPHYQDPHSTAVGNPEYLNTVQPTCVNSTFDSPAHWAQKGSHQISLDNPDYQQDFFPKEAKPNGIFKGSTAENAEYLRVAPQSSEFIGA

Legend:
[1] = target: Epidermal growth factor receptor (Homo sapiens, UniProt P00533); assay: Inhibition of wild type EGFR using poly(Glu,Tyr) as substrate assessed as [33P-gamma]-ATP incorporation after 60 mins by microplate scintillation counting
[2] = target: Epidermal growth factor receptor (Homo sapiens, UniProt P00533, L858R); assay: Inhibition of EGFR L858R mutant using poly(Glu,Tyr) as substrate assessed as [33P-gamma]-ATP incorporation after 60 mins by microplate scintillation counting; format: protein assay

SMILES: Nc1c(-c2ccc(F)cc2)c(-c2ccncc2)nn1-c1c(Cl)cc(Cl)cc1Cl
- IC50 [1]: 113 nM
- IC50 [2]: 31 nM
